Here are results for one compound from patent US20090105124A1, “HETEROCYCLIC MODULATORS OF TGR5” (Kalypsys, Inc., priority 2007, published 2009).

Chains of the proteins cited; added tags and fusions are not shown.
UniProt Q8TDU6, whole entry: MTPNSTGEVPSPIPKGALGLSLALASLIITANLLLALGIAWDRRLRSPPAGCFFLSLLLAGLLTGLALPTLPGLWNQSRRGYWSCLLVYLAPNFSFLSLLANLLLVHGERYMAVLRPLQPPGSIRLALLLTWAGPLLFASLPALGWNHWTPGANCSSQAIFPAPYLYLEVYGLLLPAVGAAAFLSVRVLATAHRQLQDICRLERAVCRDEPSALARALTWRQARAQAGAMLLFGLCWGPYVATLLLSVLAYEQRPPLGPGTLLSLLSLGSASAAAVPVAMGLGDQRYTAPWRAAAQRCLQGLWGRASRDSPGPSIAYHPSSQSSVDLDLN

The target of this experiment is human TGR5 (Homo sapiens, UniProt Q8TDU6). Nature of the experiment: cAMP production assay in HEK293 cells stably expressing TGR5 (LANCE cAMP, TR-FRET). The conditions noted are these: read-out: cAMP Production in 293-TGR5 Cells, stimulated with test compounds for 30 minutes, 1 mM IBMX, tested form: HCl. The protocol: HEK293 cells stably expressing TGR5 (HEK293-TGR5) were established by stably transfecting HEK-293 cells with an expression vector (pcDNA 3.1, Invetrogen) inserted with human TGR5 cDNA using Fugene6 (Roche, Indianapolis, Ind.) according to conventional methods. Cells were grown in DMEM (invitrogen, Carlsbad, Calif.) supplemented with 10% FBS, 1% penicillin/streptomycin under geneticin selection. The presence of TGR5 transcripts in these cells was confirmed using branched DNA (bDNA, Genospectra, Inc., Fremont Calif.) following the manufacturer's protocol and using specific probes for human TGR5. cAMP production assay was performed in high throughput 1536 well format using LANCE cAMP detection kit (Perkin Elmer Inc., Boston, Mass.) according to the manufacturer's protocol. Briefly, HEK293-TGR5 cells were harvested using non-enzymatic cell dissociation buffer (Invitrogen, Carlsbad, Calif.) and suspended in DMEM supplemented with 0.1% FBS at a density of 800,000 cells/ml. Alexa antibody was added to the cell suspension, and 4 ul of the mixture was dispensed in white opaque tissue culture treated Greiner 1536 well plates (USA Scientific, Inc., Ocala, Fla.). […] TR-FRET signal was detected using the Viewlux (Perkin Elmer Inc., Boston Mass.). EC50 values were determined using Graph Pad Prizm analysis (GraphPad Software, Inc). […]
On the technique in general: Changes in cAMP serve as a functional read-out for many G protein-coupled receptors.

With `COc1cncc(-c2nc3cccnc3c(=O)n2NCc2ccc(Cl)cc2)c1`, the EC50 is less than 10 µM.
